The record followed here is patent US12533378B2, “Treatment of adverse effects caused by atypical antipsychotics” (SHENZHEN PROFOUND VIEW PHARMACEUTICAL TECHNOLOGY CO., LTD., priority 2020, dated 2026).

Values joined by “and” are separate entries in the source; they are usually repeats but may differ in a detail not shown here. Equal entries are not always repeated. Where two headings read alike, the source gives them in different places.

In series [1] the test system is female Sprague Dawley rats. The note with it: olanzapine model control group, olanzapine 1 mg/kg tid oral + saline ip, 21 days; mean±SEM.
The subject of series [2] is female Sprague Dawley rats. The note with it: olanzapine model control group, 1 mg/kg tid oral, 21 days; mean±SEM.
Series [3] deals with female Sprague Dawley rats. Conditions: olanzapine model control group.

Regarding `Cc1cc2c(s1)Nc1ccccc1N=C2N1CCN(C)CC1` [OLZ, 2-methyl-4-(4-methyl-1-piperazinyl)-10H-thieno[2,3-b][1,5]benzodiazepine], in series [1], the “Body weight, BWG (body weight gain)” value is reported as 50.46 ± 3.52 g and the “Body weight, FBW (final body weight)” value is on record as 298.33 ± 4.97 g. Besides, in series [2], the Liver weight is given as 8.76 ± 0.28 g and the Mesenteric fat weight is 2.45 ± 0.11 g. The compound further gave a Blood glucose level in series [3] (30 minutes after ip glucose 1 g/kg) of 9.16 ± 0.48 mmol/L. The Blood glucose level in series [3] (60 minutes after ip glucose 1 g/kg) came to 6.79 ± 0.32 mmol/L. Besides, the Blood glucose level in series [3] (120 minutes after ip glucose 1 g/kg) is 6.79 ± 0.32 mmol/L and 6.30 ± 0.33 mmol/L. In series [3], the “Area under the blood glucose curve (AUG)” value was 845.07 ± 37.88 mmol/min.
